A short description of data set [1]: in vivo. The following applies: mouse, po. The procedure: The evaluation test was carried out using ddY male mice (i.e., body weight =18 to 22 g, 10 mice in each group).
The sample compound listed in Table 2 was dispersed in 0.5% carboxymethyl cellulose/physiological saline solution and orally administered in a given amount by a peroral syringe. After the administration, the toxic conditions were observed and the oral acute toxicity (LD50) was calculated from the death number during 7 days of observation according to a Litchfield Wilcoxon method.
The results are shown in Table 2, in which the compounds are shown by R in the general formula (I). The compound represented by R=H in Table 2 is a known reference compound, i.e., N-(2,3-xylyl)anthranilic acid.

Data set [2] can be described thus: in vivo. The following applies: mouse, po. The procedure: The evaluation test was carried out using ICR female mice (i.e., body weight=18 to 22 g, 10 mice in each group).
The sample compounds listed in Table 3 were dispersed in 2.0% carboxymethyl cellulose/physiological saline solution and orally administered in a given amount by a peroral syringe. After the administration, the toxic conditions were observed and the oral acute toxicity (LD50) was calculated from the death number according to a Van Der Werden method.
This is another data set of the same source.

For `Cc1cccc(Nc2ccccc2C(=O)O)c1C` [N-(2,3-xylyl)anthranilic acid, reference compound], the LD50 – broadly, the dose expected to kill half of the subjects tested – at 168 h in “in vivo [1]” worked out at 1400 mg/kg. For the same compound, the LD50 in “in vivo [2]” turned out to be 1250 mg/kg.

The values are drawn from US4666929A, “Anthranilic acid ester derivatives and antiinflammatory and analgetic external preparations containing the same” (Shiseido Company Ltd., priority 1985, dated 1987).
